# Ab-95 light chain CDR variants: yeast mating affinities

Values reported by Engelhart et al. 2022, doi:10.1038/s41597-022-01779-4 (FLAb copy).

All variants were tested on one target, the spike HR2 peptide PDVDLGDISGINAS (SARS-CoV-2).

Parent: Ab-95, a human scFv built as VH, a (GGGGS)3 linker, VL. Only the CDRs of the light chain vary.
VH: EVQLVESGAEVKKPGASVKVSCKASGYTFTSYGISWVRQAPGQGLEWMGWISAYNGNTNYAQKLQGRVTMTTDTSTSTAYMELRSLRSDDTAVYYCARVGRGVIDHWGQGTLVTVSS
VL: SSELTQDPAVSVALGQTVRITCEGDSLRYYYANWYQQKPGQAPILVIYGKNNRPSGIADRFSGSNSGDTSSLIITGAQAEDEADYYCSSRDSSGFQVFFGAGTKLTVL

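The starting antibody came from a phage panning campaign against this peptide. Variants in AAYL52 differ from the parent at up to three CDR positions; double and triple changes were sampled at random. The scFvs were displayed on barcoded MATa yeast, the peptide on MATalpha yeast. Mating (16 h, 30 °C) was followed by selection of diploids and sequencing of their barcodes. A regression on co-assayed BCL2-family reference pairs converts the normalised counts of each replicate to an apparent Kd. Each pool was mated in three replicate cultures.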

Each variant is given by its three light chain CDRs, as the data file delimits them; those of the parent are EGDSLRYYYAN, GKNNRPS, SSRDSSGFQVF.
Scale: log10 of Kd in nM, estimated from mating counts; low values are strong binders.
A pair that was not seen in that replicate is written "nd"; this usually means weak binding, but a binder can also be missed.

CDR-L1 | CDR-L2 | CDR-L3 | log10 Kd, replicates | signal with controls
EGDSLRYYYAN | GKIGRPS | SSRDSSGFQYF | nd nd nd | 1/9 (3.67)
EGDSLQYYYAN | GKNNRPW | SSRDSSGFQVC | 3.25 2.51 3.17 | 3/9 (4.33)
FGDSLRHYYAN | GKNNYPS | SSRDSSGFQVF | nd nd nd | 0/9
EGDSLRYYYDN | GKNNRPC | SSRYSSGFQVF | nd 5.21 3.00 | 1/9 (3.39)
EGDSLRYYYAN | WKNNRPS | SSRDSSMFQHF | 3.48 nd nd | 0/9
EGDSLRYYYAM | AKNNRPS | SSRDSSGFDVF | 3.72 nd nd | 2/9 (4.21)
EGDSLRYYYAN | GKTNRGS | SSRGSSGFQVF | 3.99 nd nd | 4/9 (4.56)
EGDSLRYAYAN | GKNNRPS | SSRDSSSVQVF | 2.02 1.80 1.49 | 5/9 (4.01)
EGDSLRYIYAN | GKNNLPS | SSRDSSEFQVF | nd nd nd | 0/9
EGDSPRYYYCN | GKINRPS | SSRDSSGFQVF | nd nd nd | 1/9 (3.20)
EGDSLRYYYAN | HKNNRGS | SSRDSNGFQVF | 3.03 nd nd | 3/9 (3.48)
EGDSLRYYYAN | GKNNWPS | SSRWSAGFQVF | nd nd 3.71 | 0/9
EGWSLWYYYAN | GKNNRPN | SSRDSSGFQVF | nd nd 2.49 | 0/9
EGDSLRYYLAN | GKNNRPS | TSRDSSGFQVF | 3.87 3.23 1.88 | 3/9 (3.54)
EGDSLRYYYAN | GKNNNPS | FSRDSSFFQVF | 3.25 2.78 3.00 | 2/9 (3.45)
EGDSLRYYYAN | GKNPRPS | SSRDSSGFMVF | nd 3.84 4.16 | 4/9 (3.47)
EGDSLRYYYAN | GMNNRPE | KSRDSSGFQVF | nd 2.70 nd | 3/9 (4.21)
EGDSLRYYYAN | GKNKRPS | SSRDSIQFQVF | 4.53 3.98 nd | 2/9 (4.27)
EGDSLRYYYAN | GNNNRPL | SSRDSSAFQVF | 3.30 nd nd | 0/9
EGDGLRYYYAN | GKNNRPS | SSRDSSGFVVE | 2.72 2.58 2.78 | 6/9 (3.61)
EGDGLRYYYAN | GKNNRRS | SSRDSGGFQVF | 4.01 3.28 3.84 | 1/9 (3.27)
NDDSLRYYYAN | GKNNRPS | SSRDVSGFQVF | 2.96 3.20 3.31 | 2/9 (4.07)
EGDSLRYYYVN | GKNNRWS | SSRCSSGFQVF | nd 5.49 nd | 4/9 (4.03)
EGDSLRYYYAN | GKNNRPS | SSSGSSGFPVF | 4.13 nd 4.25 | 2/9 (4.36)
EGDSLRVYYAN | GKANRPS | SSRDSSGFQVF | 1.66 1.60 1.48 | 4/9 (3.96)
EGDSLRLYYAN | GKNNRPS | SSRDESGFQVP | 3.83 3.37 2.62 | 2/9 (3.80)
EGDSLRYGYRN | GKNNRPS | SPRDSSGFQVF | 2.64 2.81 2.05 | 1/9 (3.76)
EGDSLRYYYAN | GKNNKPS | SSRLSSGFQVT | 3.91 nd nd | 3/9 (4.31)
EGDILRYYYAN | GKNNRPS | HSRDSSGFQVC | 1.80 1.89 1.77 | 3/9 (3.54)
EGDSLRYVYAI | GKNNRPS | SSRDSSGFQVC | 4.06 nd nd | 4/9 (4.17)
EPDSLRCYYAY | GKNNRPS | SSRDSSGFQVF | nd 4.10 4.11 | 5/9 (3.77)
EGDSLRYYYGN | GKNNRFS | SSRYSSGFQVF | 2.67 1.86 1.85 | 2/9 (4.49)
EGDSLRYYYAY | GKNNRPS | SCMDSSGFQVF | 3.32 4.26 4.06 | 2/9 (4.23)

Picked from the list: the 5 lowest averages where every replicate gave a value.

| CDR-L1 | CDR-L2 | CDR-L3 | log10 Kd, replicates | signal with controls |
|---|---|---|---|---|
| EGDSLRVYYAN | GKANRPS | SSRDSSGFQVF | 1.66 1.60 1.48 | 4/9 (3.96) |
| EGDSLRYAYAN | GKNNRPS | SSRDSSSVQVF | 2.02 1.80 1.49 | 5/9 (4.01) |
| EGDILRYYYAN | GKNNRPS | HSRDSSGFQVC | 1.80 1.89 1.77 | 3/9 (3.54) |
| EGDSLRYYYGN | GKNNRFS | SSRYSSGFQVF | 2.67 1.86 1.85 | 2/9 (4.49) |
| EGDSLRYGYRN | GKNNRPS | SPRDSSGFQVF | 2.64 2.81 2.05 | 1/9 (3.76) |

Empty control strains, which show no peptide, gave a signal in 28% of pairings with library AAYL52; the median was 3.91 and 95% of these signals were weaker than 2.90. No background was subtracted. For each scFv, signals with the empty controls are counted beside the result, with their mean in brackets.
Parent in this assay: reference entry 2.31, copy in this library 2.25.